Test results reported in ChEMBL document CHEMBL5154716, “Neuropeptide B/W receptor 1 peptidomimetic agonists: Structure-activity relationships and plasma stability” (Eur J Med Chem, 2022).

Target: T1, Neuropeptides B/W receptor type 1 (Homo sapiens, UniProt P48145)
T1 sequence (P48145 whole entry): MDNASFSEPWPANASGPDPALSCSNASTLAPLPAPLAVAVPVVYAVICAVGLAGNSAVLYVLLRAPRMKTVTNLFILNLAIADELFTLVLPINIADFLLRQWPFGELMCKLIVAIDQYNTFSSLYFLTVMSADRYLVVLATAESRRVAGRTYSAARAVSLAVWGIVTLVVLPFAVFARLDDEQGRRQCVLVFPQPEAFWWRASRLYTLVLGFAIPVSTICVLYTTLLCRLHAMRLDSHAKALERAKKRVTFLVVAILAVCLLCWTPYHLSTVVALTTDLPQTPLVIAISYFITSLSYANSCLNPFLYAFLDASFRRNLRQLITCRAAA
Experiment: Agonist activity at human NPBWR1 expressed in CHO-RD-HGA16 cells measured by calcium mobilization assay
Format: functional, cell-based

EC50: 10.9 nM
Compound: CSCC[C@H](NC(=O)[C@H](CC(C)C)NC(=O)[C@H](CC(C)C)NC(=O)CNC(=O)[C@H](C)NC(=O)[C@H](C)NC(=O)[C@H](CCCNC(=N)N)NC(=O)CNC(=O)[C@@H](NC(=O)[C@@H](NC(=O)[C@H](Cc1cnc[nH]1)NC(=O)[C@H](Cc1ccc(O)cc1)NC(=O)[C@H](CCCNC(=N)N)NC(=O)[C@@H]1CCCN1C(=O)[C@H](CO)NC(=O)[C@H](C)NC(=O)[C@@H](NC(=O)[C@H](Cc1cnc[nH]1)NC(=O)[C@H](CCCCN)NC(=O)[C@H](Cc1ccc(O)cc1)NC(=O)[C@@H](N)Cc1c[nH]c2ccccc12)C(C)C)[C@@H](C)O)C(C)C)C(=O)NCC(=O)N[C@@H](CC(C)C)C(=O)N[C@@H](CCCNC(=N)N)C(=O)N[C@@H](CCCNC(=N)N)C(=O)N[C@@H](CO)C(=O)N1CCC[C@H]1C(=O)N[C@@H](Cc1ccc(O)cc1)C(=O)N[C@@H](CC(C)C)C(=O)N[C@@H](Cc1c[nH]c2ccccc12)C(=O)O
